Measured values from PMC8551951 (Biophysical Reviews, 2021).

System: MDA-MB-231 and MCF-7

heparin
cell viability: significant cell death
